{"source": "patent US9139551B2", "about": "“Preparation of a new class of water-soluble ammonium 2,3-dihydroxy-5-((2R,3R)-3,5,7-trihydroxy-4-oxochroman-2-yl) phenolates and their biological activity of alcohol elimination” (priority 2014, dated 2015)", "experiment": "Solubility in water", "conditions": "room temperature"}
{"substance": "triethylammonium 2,3-dihydroxy-5-((2R,3R)-3,5,7-trihydroxy-4-oxochroman-2-yl)phenolate", "values": [{"measurement": "solubility in water", "result": 6500, "unit": "µg/mL"}]}
